Measurements published in published antibiotic growth screens (doi:10.1038/s41589-023-01349-8).
The list shows a part of the results.

Test system: A. baumannii ATCC 17978
Assay: relative growth (fraction of control); higher = less inhibition
Details: 50 µM

Q: With COC(=O)c1c(CC[C@@H](COC(=O)NCCCCCC(=O)NO)NC(=O)N[C@@H](Cc2ccccc2)Cn2cc(-c3ccccc3)nn2)oc(C(=O)N2CCOCC2)c1C(=O)OC as the compound, how does the relative growth read?
A: 1.03

Q: O=C(C[C@H]1C=C[C@@H](NC(=O)Cc2ccccn2)[C@H](CO)O1)NCCCN1CCOCC1 was tested. Which relative growth did it give?
A: 1.05

Q: Which relative growth does the source give for CN1CC(=O)N=C1NC(=O)[C@H]1CCCN(S(=O)(=O)c2ccc3c(c2)oc(=O)n3C)C1 here?
A: 1.04

Q: CCOc1ccc(Cc2nccc3cc(OCC)c(OCC)cc23)cc1OCC.Cl was tested. Which relative growth did it give?
A: 1.02

Q: Which relative growth does the source give for C[C@H](CC(=O)C1OC1(C)C)[C@H]1C(=O)C[C@@]2(C)C3=CCC4C(C)(C)[C@@H](O[C@@H]5OC[C@@H](O)[C@H](O)[C@H]5O)CC[C@@]45C[C@@]35[C@@H](O)C[C@]12C (some centres undefined) here?
A: 0.99

Q: For C=CCC[C@H](Cc1ccc(F)cc1)C(=O)OC[C@@H](NC(=O)[C@@H](CC=C)CC(=O)N[C@H](CO)Cc1ccccc1)C(C)(C)C, which relative growth is on record?
A: 0.906

Q: C[n+]1ccccc1C=NO.[Cl-] was tested. Which relative growth did it give?
A: 1.18

Q: For O=C(C[C@@H]1CC[C@@H]2[C@H](COC[C@@H](O)CN2C(=O)c2ccc3c(c2)OCO3)O1)NCCN1CCCCC1, which relative growth is on record?
A: 0.998

Q: With C=CC1=C(C(=O)O)N2C(=O)[C@@H](NC(=O)/C(=N\O)c3csc(N)n3)[C@H]2SC1 as the compound, how does the relative growth read?
A: 0.151

Q: How did the relative growth turn out when CN1C(CCl)Nc2cc(Cl)c(S(N)(=O)=O)cc2S1(=O)=O (centres undefined) was run?
A: 0.964

Q: C[C@@H]1CN([C@H](C)CO)S(=O)(=O)c2ccc(C#C[C@@H](C)O)cc2O[C@@H]1CN(C)C(=O)c1ccncc1 was tested. Which relative growth did it give?
A: 1.08

Q: NCCCCCc1nnc(SCC(N)=O)o1 was tested. Which relative growth did it give?
A: 1.19

Q: With OCc1ccccc1O[C@@H]1O[C@H](CO)[C@@H](O)[C@H](O)[C@H]1O as the compound, how does the relative growth read?
A: 0.988

Q: With CC(C)CC#Cc1ccc2c(c1)O[C@H](CN(C)C(=O)Cc1cccnc1)[C@H](C)CN([C@@H](C)CO)S2(=O)=O as the compound, how does the relative growth read?
A: 0.878

Q: How did the relative growth turn out when CC(C)(C)NCC(O)c1cc(O)cc(O)c1.O=S(=O)(O)O (centres undefined) was run?
A: 1.17

Q: For O=C(C[C@H]1C=C[C@@H](NS(=O)(=O)c2ccc(F)cc2)[C@H](CO)O1)N1CCC(Cc2ccccc2)CC1, which relative growth is on record?
A: 0.79

Q: How did the relative growth turn out when CC/C(=C\C(=O)O)c1ccccc1 was run?
A: 1.05

Q: CCS(=O)(=O)NCC[C@@H]1CC[C@@H](NS(=O)(=O)c2cccc(F)c2)[C@H](CO)O1 was tested. Which relative growth did it give?
A: 0.915

Q: For CNCCCC12CCC(c3ccccc31)c1ccccc12.Cl, which relative growth is on record?
A: 0.971

Q: For O=C(N[C@H]1CC[C@H](CC(=O)N2CCOCC2)O[C@H]1CO)c1ccc2c(c1)OCO2, which relative growth is on record?
A: 0.939

Q: With O=C(C[C@@H]1CC=CC[C@@H](NC(=O)OCC2c3ccccc3-c3ccccc32)C(=O)OC[C@@H](Cc2c[nH]c3ccccc23)NC1=O)N[C@H](CO)Cc1ccccc1 as the compound, how does the relative growth read?
A: 0.855

Q: For CC(=O)NS(=O)(=O)c1ccc(N)cc1, which relative growth is on record?
A: 0.986

Q: Which relative growth does the source give for O=C1CN(c2ccccc2)C=NN1 here?
A: 0.892

Q: How did the relative growth turn out when O=S(=O)(NCCN(C/C=C/c1ccc(F)cc1)C/C=C/c1ccc(F)cc1)c1cccc2cnccc12 was run?
A: 1.03

Q: With Cc1cn([C@H]2C=C[C@@H](CO)O2)c(=O)[nH]c1=O as the compound, how does the relative growth read?
A: 0.952

Q: Which relative growth does the source give for Oc1ccc([C@H]2Oc3cc(O)cc(O)c3C[C@H]2O)cc1 here?
A: 0.941

Q: How did the relative growth turn out when C=C[C@@](C)(O)CCC1C(=C)C[C@H](OC(C)=O)C2C(C)(C)CCCC12C (some centres undefined) was run?
A: 1.09

Q: Which relative growth does the source give for N=C(N)c1ccc(OCCCCCOc2ccc(C(=N)N)cc2)cc1.O=S(=O)(O)CCO.O=S(=O)(O)CCO here?
A: 0.97

Q: How did the relative growth turn out when O=C1CCOC[C@@H]2CCCN12 was run?
A: 1.09

Q: Which relative growth does the source give for N=C(N)N1CCc2ccccc2C1.O=S(=O)(O)O here?
A: 0.929

Q: For O=C(N[C@@H]1C=C[C@H](CC(=O)N2CCOCC2)O[C@@H]1CO)c1ccccn1, which relative growth is on record?
A: 1

Q: Which relative growth does the source give for CNS(=O)(=O)c1cccs1 here?
A: 1.01

Q: How did the relative growth turn out when COc1cccc(-c2cn(CC[C@H]3CC[C@@H](NC(=O)CN(C)C)[C@H](CO)O3)nn2)c1 was run?
A: 1.12

Q: CCNC(=O)C[C@H]1CC[C@H]2[C@@H](COC[C@@H](O)CN2S(=O)(=O)c2ccc(Oc3ccccc3)cc2)O1 was tested. Which relative growth did it give?
A: 1.05

Q: O=C(N[C@@H]1CC[C@H](CC(=O)N2CCOCC2)O[C@@H]1CO)c1ccc2c(c1)OCO2 was tested. Which relative growth did it give?
A: 1.19

Q: Which relative growth does the source give for Cc1nccn1C[C@H](C)C(=O)O here?
A: 1.01

Q: Which relative growth does the source give for O=C1OCCN/C1=C/C(=O)c1ccccc1 here?
A: 1.03

Q: With COCC(=O)Nc1ccc2c(c1)C(=O)N(C)[C@H]1CC[C@H](CC(=O)NCc3ccc(OC)cc3)O[C@H]1CO2 as the compound, how does the relative growth read?
A: 1.05

Q: For O=CN1CCN(C(=O)c2ccccc2)CC1, which relative growth is on record?
A: 1.08

Q: For CN(C)Cc1cn(CC[C@H]2CC[C@@H](NS(=O)(=O)c3ccccc3)[C@@H](CO)O2)nn1, which relative growth is on record?
A: 0.974

Q: O=c1c(O[C@@H]2O[C@H](CO)[C@H](O)[C@H](O)[C@H]2O)c(-c2ccc(O)c(O)c2)oc2cc(O)cc(O)c12 was tested. Which relative growth did it give?
A: 1.09

Q: O=P([O-])(O)C(O)(Cc1cccnc1)P(=O)(O)O.[Na+] was tested. Which relative growth did it give?
A: 0.921

Q: Which relative growth does the source give for Cc1c(-c2cnccn2)ssc1=S here?
A: 1.29

Q: COc1ccc([Si](C)(C)[C@H]2[C@H](CCO)O[C@@]3(C(=O)N(Cc4ccc(N5C(=O)c6cccc7cccc5c67)cc4)c4ccccc43)[C@@H]2C)cc1 was tested. Which relative growth did it give?
A: 1.22

Q: With C=C[C@H]1CN2CC[C@H]1C[C@@H]2[C@@H](O)c1ccnc2ccc(OC)cc12.O=C(O)[C@H](O)[C@@H](O)[C@H](O)[C@H](O)CO as the compound, how does the relative growth read?
A: 0.944

Q: For CCCCNC(=O)N1CCN(C)CC1, which relative growth is on record?
A: 0.928

Q: With CCOC(=O)CN1C[C@]23C=C[C@H](O2)[C@@H](C(=O)NCc2ccc(OC)cc2)[C@H]3C1=O as the compound, how does the relative growth read?
A: 0.992

Q: For C[C@H](CO)N1C[C@H](C)[C@@H](CN(C)C(=O)C2CCOCC2)Oc2ncc(C#Cc3cccc(F)c3)cc2C1=O, which relative growth is on record?
A: 0.971

Q: O=C(C[C@@H]1CC[C@H]2[C@@H](COC[C@@H](O)CN2Cc2cc(F)ccc2F)O1)N[C@@H]1CCN(Cc2ccccc2)C1 was tested. Which relative growth did it give?
A: 1.11

Q: How did the relative growth turn out when CC(=O)OCC(=O)[C@@]1(O)CCC2C3CCC4=CC(=O)C=C[C@]4(C)[C@@]3(F)[C@@H](O)C[C@@]21C (some centres undefined) was run?
A: 1.01

Q: Which relative growth does the source give for CN(C)CC(=O)N[C@H]1CC[C@H](CCn2cc(CN(C)C)nn2)O[C@@H]1CO here?
A: 0.964

Q: How did the relative growth turn out when O=C(O)/C=C/C(=O)O.OCCOCCN1CCN(C2=Nc3ccccc3Sc3ccccc32)CC1 was run?
A: 1.05

Q: Which relative growth does the source give for COc1ccc(C(=O)Nc2ccc(CN3C(=O)[C@]4(O[C@H](CCO)[C@@H]([Si](C)(C)F)[C@@H]4C)c4ccccc43)cc2)cc1 here?
A: 0.822

Q: For O=C(C[C@H]1C[C@@H]2c3cc(NC(=O)NC4CCCC4)ccc3O[C@@H]2[C@H](CO)O1)NCc1ccc(Oc2ccccc2)cc1, which relative growth is on record?
A: 0.805
